ClpP mod = qHTS Assay for Activators of ClpP; ATP-dependent Clp protease proteolytic subunit (Bacillus subtilis (strain 168)), P80244; purified B. subtilis ClpP, FRET peptide cleavage, 20 min; Potency, µM (highest dose often 57.5 µM), for inactives: top-dose activity change, negative = active; actives 1.9% (n = 340,000); active = well fitted falling curve with a large enough effect; inconclusive = small, poorly fitted or top-dose-only effect; inactive = no such curve, though single readings can be large or run the other way; also: the source files actives as falling curves though it sought activators and does not explain the sign; nearly all actives have a fitted effect of over 65% in size
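Purified B. subtilis ClpP, 10 microg/mL final in Tris/HCl pH8 with KCl, BSA, glycerol and Tween-20, cleaved an Abz/nitrotyrosine-quenched decapeptide. Fluorescence (ex 320, em 430) was read at 0 and 20 min at room temperature. Delta was normalized to 5.8 microM ADEP and DMSO/no-enzyme controls.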
12-LOX inh = ALOX12 (human) lipoxygenase inhibition. Potency, µM (series often up to 108 µM), for inactives: at the top dose activity change, negative = inhibition, usual class: inhibitors. P18054. actives 1.1% (n = 580,000). purified 12hLO, xylenol orange hydroperoxide absorbance; also: % is scaled to controls: 0 for no effect and ±100 for the full control effect
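Purified human 12hLO at 150 nM in 25 mM Hepes, 0.01% Triton X-100, pH 7.0, preincubated 15 min at room temperature with compound. Reaction started with 40 uM arachidonic acid, 30 min at room temperature. Hydroperoxide measured by Fe-xylenol orange, 573/405 nm absorbance ratio.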
PTAP TSG101 blk = blocks PTAP/TSG101 interaction to inhibit HIV-1 budding. Fluorescence polarization, FITC-PTAP peptide / Tsg101 binding. AID 493005. Potency, µM (highest dose often 115 µM), for inactives: at the top dose activity change, negative = inhibition, most hits filed as inhibitors. 340,000 tested, under 10 active; active = well fitted inhibition curve with a large enough effect in the main read-out, with a control signal flat, not every such curve was filed as active; inconclusive = small, poorly fitted or top-dose-only effect, or effect the other way, or a change in a side signal; inactive = no such curve, though single readings can be large or run the other way; also: % of control where 0% means no effect
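Fluorescence anisotropy tracks displacement of a FITC-tagged PTAP peptide (50 nM) from the Tsg101 binding domain (10 uM), following a 20 min room-temperature incubation at pH 7.5.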
TDP1 inh = inhibitors of human tyrosyl-DNA phosphodiesterase TDP1; Q9NUW8; recombinant TDP1, AlphaScreen DNA substrate cleavage; Potency, µM (doses to about 130 µM), inactives show at the top dose activity change, negative = inhibition, hits mostly inhibitors; actives 0.28% (n = 350,000); AID 485290; also: % is scaled to controls: 0 for no effect and ±100 for the full control effect; nearly all actives have a fitted effect of over 40% in size
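Recombinant E. coli-expressed Tdp1 (1 nM) preincubated with compound 15 min at RT, then 5'-biotin/3'-phosphotyrosine-FITC DNA substrate (15 nM) added for 5 min. AlphaScreen beads (10 ug/ml) added, 10 min RT; tyrosine-FITC cleavage read as signal loss.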
Rango complex inh = Rango-importin beta binding inhibition; Rango CFP/YFP FRET sensor + importin beta, 45 min; Q14974; AID 540263; Potency, µM (doses to about 92.2 µM), without a hit: at the highest dose inhibition of complex formation; actives 0.031% (n = 340,000); calls by dose curve;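 also: 0% = DMSO wells and 100% = buffer wells lacking importin beta; nearly all actives have a fitted effect of over 15% in size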
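Inhibition scored from the CFP 486 nm/YFP 530 nm FRET ratio 45 min after adding 0.125 microM importin beta to 50 nM Rango biosensor preincubated 5 min with compound (room temperature, PBS with DTT, Tween-20, BSA). No-importin wells as positive control.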
Rango release inh = inhibitors of RanGTP-induced Rango-importin beta complex dissociation; Biochemical FRET Rango-importin beta, RanGTP-induced dissociation; actives 0.071% (n = 340,000); O95149+P62826; Potency, µM (highest dose often 46.1 µM), for inactives: at the top dose activity change, negative = inhibition; AID 540253; calls by dose curve; also: % of control where 0% means no effect; nearly all actives have a fitted effect of over 45% in size
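FRET read at 45 min, room temperature: inhibitors block the CFP/YFP signal rise when RanGTP (0.6 uM Ran, 2 mM GTP, 0.2 uM RCC1) frees Rango (0.1 uM) from importin beta (0.25 uM). Pre-read after 5 min compound exposure flags interference.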
The depositor's hits bear a star; ? = inconclusive; / = no result. Rows were chosen to be rich in hits. Some 2.4% of all compounds tested hit in one or more screens of this group. Unless noted, calls follow the shape of the dose curve; as a rule, active = well fitted curve in the direction sought with a large enough effect; inconclusive = small, poorly fitted or top-dose-only effect, or another doubt; inactive = no such curve, though single readings can be large; an effect the other way counts as inactive or inconclusive. Potency is read from the fitted curve at half-maximal effect.

compound	ClpP mod	12-LOX inh	PTAP TSG101 blk	TDP1 inh	Rango complex inh	Rango release inh
O=C(O)CC(=O)NC12CC3CC(CC(C3)C1)C2	1%	-4%	-3%	-5%	0%	-12%
O=C(CSc1ccccn1)N1CCN(c2ccc(Cl)cc2)CC1	1%	0%	-2%	6%	0%	-2%
O=C(CSc1ccccn1)N1CCN(C(=O)CSc2ccccn2)CC1	-1%	3%	-3%	6%	65µM*	-4%
Cc1ccc(Nc2ccc(N)cc2S(=O)(=O)O)cc1	5%	?	-4%	5%	0%	13%
Nc1ccc(Nc2ccccc2)c(S(=O)(=O)O)c1	/	?	2%	56µM*	-1%	-6%
COCCNc1ncnc2ccc(-c3ccccc3C(F)(F)F)cc12	/	20µM*	/	/	/	/
COCCCNc1ncnc2ccc(C)cc12	-10%	?	-5%	2%	-1%	20%
COc1ccccc1CNC(=O)Cn1c(=O)oc2ccccc21	-1%	-16%	/	3%	/	/
COc1ccccc1CCNC(=O)Cn1c(=O)oc2ccccc21	0%	0%	-2%	18µM*	5%	22%
N#C/C(=C\c1c(Cl)cccc1Cl)c1nc2ccccc2o1	4µM*	-20%	-3%	6%	-4%	17%

Look-ups from the list.
O=C(O)CC(=O)NC12CC3CC(CC(C3)C1)C2 | Rango release inh: -12%
COc1ccccc1CNC(=O)Cn1c(=O)oc2ccccc21 | ClpP mod: -1%
N#C/C(=C\c1c(Cl)cccc1Cl)c1nc2ccccc2o1 | 12-LOX inh: -20%

(continued)
compound	ClpP mod	12-LOX inh	PTAP TSG101 blk	TDP1 inh	Rango complex inh	Rango release inh
Cc1cc(O)ccc1N/C=C(\C#N)c1nc2ccccc2o1	18µM*	-25%	-7%	2%	?	?
O=C(CCNC(=O)c1cnccn1)NC1CCCc2c1[nH]c1c(Cl)cccc21 (stereo not drawn)	/	24%	/	/	/	/
CCC[C@@H]1CN(C(=O)CCc2c(C)nn(C)c2C)C[C@H]1NS(C)(=O)=O	/	-8%	/	/	/	/
COc1ccc(CC(=O)N2CCC(Cc3nc(-c4ccc(F)cc4)no3)CC2)cc1OC	/	15%	/	/	/	/
CC(C)(C)OC(=O)NCCCCCc1nnc(SCc2cccc(F)c2)o1	2%	181%	-5%	/	5%	1%
Cc1cccc(CSc2nnc(CCNC(=O)OC(C)(C)C)o2)c1	/	7.9µM*	0%	/	-1%	7%
NCC(=O)N1CCC(n2nccc2NC(=O)Nc2ccccc2Cl)CC1	/	0%	/	/	/	/
CC(C)(C)c1ccc(S(=O)(=O)N2CCN(CC(O)COCC3CCCO3)CC2)cc1 (stereo not drawn)	0%	15%	0%	1%	6%	-8%
O=S(=O)(c1ccc(Cl)c(C(F)(F)F)c1)N1CCN(CC(O)COCC2CCCO2)CC1 (stereo not drawn)	0%	0.56µM*	-6%	-3%	-2%	-1%
COc1ccc(C(=O)N2CCC3(CC2)NC(=O)N(Cc2ccc(F)cc2)C3=O)cc1	/	5%	/	/	/	/

Entries listed so far shown as hits in Rango complex inh:
canonical_smiles	12-LOX inh	PTAP TSG101 blk	TDP1 inh	Rango complex inh	Rango release inh
O=C(CSc1ccccn1)N1CCN(C(=O)CSc2ccccn2)CC1	3%	-3%	6%	65µM*	-4%

The list continues.
| Molecule | ClpP mod | 12-LOX inh | PTAP TSG101 blk | TDP1 inh | Rango complex inh | Rango release inh |
| --- | --- | --- | --- | --- | --- | --- |
| CCCCCCCCCc1conc1C(=O)/C=C/c1oc2c(c1C)CCC(C)C2 (stereo not drawn) | 1% | 40µM* | / | / | / | / |
| COc1ccccc1C(=O)N1[C@@H]2CC[C@H]1CC(NC(=O)c1ccncc1)C2 (stereo partly drawn) | / | 37% | / | / | / | / |
| COc1cc(C(=S)N2CCN(c3cccc(Cl)c3)CC2)ccc1O | / | 45µM* | -9% | 2% | -1% | 0% |
| CN(C)C(CNC(=O)NCC(c1cccs1)N(C)C)c1cccs1 (stereo not drawn) | / | -2% | / | / | / | / |
| COc1ccc(OCCCC(=O)N(C)CC(=O)Nc2c(C)cccc2C)cc1 | 2% | ? | 2% | -6% | -3% | 11% |
| COc1ccc(OCCN(C)CC(=O)Nc2c(C)cccc2C)cc1 | 20µM* | -2% | -4% | / | 0% | -9% |
| CCCc1noc(-c2ccn3c(CNC(=O)Cc4ccccc4Cl)nnc3c2)n1 | / | 45µM* | / | / | / | / |
| CCCc1noc(-c2ccn3c(CNC(=O)c4ccc(CC)cc4)nnc3c2)n1 | / | 40µM* | / | / | / | / |
| CCCc1noc(-c2ccn3c(CNC(=O)c4ccc(F)c(Cl)c4)nnc3c2)n1 | / | 50µM* | / | / | / | / |
